High-throughput results deposited in PubChem by National Center for Advancing Translational Sciences (NCATS).
miR-21 reporter – miR-21 reporter, rising signal; HeLa miR-21 FLuc reporter, luciferase, 48 h; Potency, µM (top dose mostly 38.3 µM); 340,000 tested, under 10 active; active = well fitted rising curve with a large enough effect; inconclusive = small, poorly fitted or top-dose-only effect; inactive = no such curve, though single readings can be large or run the other way;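 further: miR-21 action dims this reporter so a rising signal means less miR-21 action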
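Using DMEM plus 10% FBS, HeLa miR-21-FLuc cells are incubated with test compounds (final up to about 40uM) for 48 hours; firefly luciferase signal is then imaged following reagent-mediated lysis.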
KDM4E inh – blocks human JMJD2E demethylase activity; JMJD2E catalytic domain, FDH-coupled NADH fluorescence (FDH is formaldehyde dehydrogenase); actives 1.6% (n = 230,000); Potency, µM (top dose mostly 57.1 µM), hits mostly inhibitors; B2RXH2; active = well fitted inhibition curve with a large enough effect, not every such curve was filed as active; inconclusive = small, poorly fitted or top-dose-only effect, or another doubt; inactive = no such curve, though single readings can be large or run the other way; note: nearly all actives have a fitted effect of over 50% in size
G9a inh – G9a (human) methyltransferase inhibition | Q96KQ7 | G9a H3K9 monomethylation, AlphaScreen, 2 h | Potency, µM (titrated, usually from 102 µM), actives largely listed as inhibitors | actives 8.8% (n = 350,000); note: nearly all actives have a fitted effect of over 75% in size
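Quantitative HTS format: methyltransferase activity on a biotin-tagged H3K9 peptide is measured by AlphaScreen, using a rabbit anti-monomethyl-H3K9 antibody with streptavidin donor and anti-IgG acceptor beads. Final levels are 20 nM enzyme, 500 nM peptide, 20 uM SAM; 2 h RT.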
ALDH1A1 inh – ALDH1A1 (human) enzyme inhibition. P00352. Purified ALDH1A1, NADH fluorescence, propionaldehyde substrate. Potency, µM (highest dose often 75.3 µM), usual class: inhibitors. actives 7.3% (n = 220,000). AID 1030; active = well fitted inhibition curve with a large enough effect, not every such curve was filed as active; inconclusive = small, poorly fitted or top-dose-only effect, or another doubt; inactive = no such curve, though single readings can be large or run the other way
Sfp inh – blocks B. subtilis Sfp PPTase activity. Q9F4F7. Potency, µM, usual class: inhibitors. actives 3.5% (n = 310,000). Biochemical Sfp PPTase activity, qHTS;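 note: the enzyme is Sfp with the accession as filed and its product quenches rhodamine fluorescence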
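After 15 min at room temperature with compound, 15 nM Sfp received 5 uM rhodamine-CoA plus 12.5 uM BHQ-2-ybbR (50 mM Hepes pH 7.6, 10 mM MgCl2). Rate came from the fluorescence difference over 30 min, ex 525/em 598 nm.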
Lamin A splicing – modulators of lamin A splicing | actives 0.01% (n = 200,000) | HeLa LMNA splicing GFP/RFP minigene ratio, 48 h | AID 1487 | Potency, µM (titrated, usually from 46.1 µM), actives largely listed as inhibitors; active = well fitted inhibition curve with a large enough effect in the signal ratio, with a control signal flat, not every such curve was filed as active; inconclusive = small, poorly fitted or top-dose-only effect, or effect the other way, or a change in a side signal; the % refers to the signal ratio
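S3 HeLa cells stably expressing lamin A-EGFP splicing minigene plus DsRed2, 600 cells/well, 48 h compound exposure at 37C. Laser-scanning cytometry; analysed as GFP (500-530 nm)/RFP (575-640 nm) total intensity ratio; 0.5% DMSO vehicle.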
Numbers stand for hits; 0 = inactive; ? = inconclusive; - = no result given; [ ] = remark or other dose. Sampled rows, rich in hits. Any-hit rate of the full collection: about 13%. Unless noted, calls come from the whole dose curve; as a rule, active = well fitted curve in the direction sought with a large enough effect; inconclusive = small, poorly fitted or top-dose-only effect, or another doubt; inactive = no such curve, though single readings can be large; an effect the other way counts as inactive or inconclusive.

SMILES	miR-21 reporter	KDM4E inh	G9a inh	ALDH1A1 inh	Sfp inh	Lamin A splicing
N#Cc1nc(-c2ccccc2)oc1N1CCCCC1	0	?	?	?	0	?
N#Cc1nc(-c2ccc(F)cc2)oc1N1CCCC1	0	?	?	?	0	0
Cc1ccc(-c2nc(C#N)c(N3CCCCC3)o2)cc1	0	?	20µM	?	0	0
Cc1cccc(-c2nc(C#N)c(N3CCCCC3)o2)c1	0	-	7.1µM	-	0	-
N#Cc1nc(-c2ccc(F)cc2)oc1N1CCCCC1	0	-	13µM	-	0	-
COc1ccccc1-c1nc(C#N)c(N2CCN(c3cccc(Cl)c3)CC2)o1	0	?	0.71µM	?	0	?
COc1ccc(N2CC(C(=O)Nc3c4c(nn3-c3ccccc3)CS(=O)(=O)C4)CC2=O)cc1 (stereo not given)	0	-	-	-	0	-
Cc1ccccc1-c1nc(C#N)c(N2CCCCC2)o1	0	-	35µM	-	0	-
CN(C)c1ccc(NC(=O)CCSc2nc(-c3ccco3)cc(C(F)(F)F)n2)cc1	0	-	0.71µM	-	-	-
Cc1ccc(NC(=O)CSc2nc(-c3ccco3)cc(C(F)(F)F)n2)cc1	0	-	0	-	-	-
O=C(CSc1nc(-c2ccco2)cc(C(F)(F)F)n1)Nc1ccc(C(=O)N2CCCCC2)cc1	0	?	0	14µM	0	?
Cc1nc(C/C(=N\Nc2ccccc2)c2ccc(O)cc2O)cs1	0	14µM	4.5µM	3.2µM	18µM	0
CCc1cc(/C(Cc2ccccn2)=N\Nc2ccccc2)c(O)cc1O	0	?	2.5µM	7.9µM	0	0
O=C(NCc1ccccn1)Nc1cccc(NC(=O)NCc2ccccn2)c1	0	0	0	0	0	0
Cc1nn(CC(=O)Nc2cc(F)ccc2F)c(=O)c2cccn12	0	-	0	-	-	-
O=C(c1ccc([N+](=O)[O-])cc1)c1cc2ccc(O)cc2oc1=O	0	-	50µM	-	0	-
O=C(NCc1ccccn1)c1ccc(/C=N/O)nc1	0	0	0	0	50µM	0
O=C(NCc1ccccc1)c1ccc(/C=N/O)nc1	0	0	10µM	0	0	0
C[N+](C)(C)CCCNC(=O)c1ccc(/C=N/O)nc1	0	0	?	0	?	-
CNCCCNC(=O)c1ccc(/C=N/O)nc1	0	0	?	0	79µM	0
O=C(NCCCNC1CCCCC1)c1ccc(/C=N/O)nc1	0	0	?	0	0	0
CN(C)CCCNC(=O)c1ccc(/C=N/O)nc1	0	0	0	0	0	0
NC(=O)c1ccc(/C=N/O)nc1	0	?	3.5µM	0	0	0
O=C(CCc1ccccc1)N(Cc1cccnc1)c1nc2c(F)cc(F)cc2s1	0	-	0	-	-	?
Cc1cc(C(=O)CSc2nnc(NCc3ccccc3)s2)c(C)n1C	0	0	?	0	0	?
SMILES	miR-21 reporter	KDM4E inh	G9a inh	ALDH1A1 inh	Sfp inh	Lamin A splicing
CN1/C(=C\C(=O)CSc2nnc(NCc3ccccc3)s2)C(C)(C)c2ccccc21	0	0	3.2µM	0	0	?
Cc1ccc(C(=O)CNc2cccc(Cl)c2)cc1	0	0	0	22µM	0	0
Cc1ccc(NCC(=O)c2ccccc2)cc1Cl	0	0	0	20µM	0	0
Cc1ccc(NC2=C(NC(=O)c3ccccc3)C(=O)c3ccccc3C2=O)cc1Cl	0	0	2.2µM	20µM	10µM	?
Cc1ccc(NCCC(=O)c2ccccc2)cc1Cl	0	0	0	3.2µM	0	0
CCOc1cc(C(=O)Nc2c(NC)c3ccccc3oc2=O)cc(OCC)c1OCC	0	-	0	-	-	-
CC(C)=CCC/C(C)=C/CO/N=C1/C[C@@H](O)[C@@H](O)[C@@H]2[C@@H]3C(=O)N([C@@H](C)c4ccccc4)C(=O)[C@H]3CC[C@H]12	-	-	-	0[13.5 µM]	0	-
Cc1ccc(C(=O)CNc2ccc(C)c(Cl)c2)cc1	0	0	0	10µM	0	0
O=C(Nc1ccc2oc(-c3ccncc3)nc2c1)c1ccc2c(c1)OCO2	0	?	?	-	0	-
O=C(Nc1ccc2oc(-c3ccncc3)nc2c1)c1ccc2c(c1)OCCO2	0	?	20µM	-	?	-
O=C(Nc1ccc2oc(-c3cccnc3)nc2c1)c1ccc2c(c1)OCCO2	0	0	14µM	?	0	-
O=C(Nc1ccc2oc(-c3ccccc3)nc2c1)c1ccc2c(c1)OCCO2	0	?	?	?	0	?
O=C(Nc1ccc2oc(-c3cccnc3)nc2c1)c1ccc(-c2ccccc2)o1	?	-	11µM	-	-	-
O=C(Nc1ccc2oc(-c3cccnc3)nc2c1)c1ccc(-c2ccc(OC(F)(F)F)cc2)o1	0	-	?	-	-	-
Cc1cc(C)c2c(N)c(S(=O)(=O)c3ccccc3)sc2n1	0	?	0[12.7 µM]	?	89µM	?
CCCCS(=O)(=O)c1sc2nc(C)cc(C)c2c1N	0	?	?	0	0	0
CC(C)(C)c1ccc(C(=O)N/N=C/c2ccc(OCCCF)cc2)cc1	0	0	0	?	0	-
CCOC(=O)C1(Cc2ccccc2Cl)CCN(S(=O)(=O)N(C)C)CC1	0	0	0	8.9µM	0	-
COc1cc([N+](=O)[O-])ccc1NC(=O)CCS(=O)(=O)c1ccc2c(c1)n(C)c(=O)c(=O)n2C	0	-	-	-	0	-
Cc1csc(NC(=O)CSc2sc3c(O)cc(=O)[nH]c3c2C#N)n1	0	-	50µM	-	?	-
CCSc1nnc(NC(=O)CSc2sc3c(O)cc(=O)[nH]c3c2C#N)s1	0	-	?	-	0	-
CCc1nnc(NC(=O)CSc2sc3c(O)cc(=O)[nH]c3c2C#N)s1	0	-	10µM	-	79µM	-
CCCCc1nc2ccccc2n1CC(=O)N(COCC)c1c(C)cccc1CC	?	-	0	-	-	-
O=C(Nc1ccccc1)c1nnsc1S(=O)c1ccc(Cl)cc1 (stereo not given)	?	0	?	1.8µM	7.9µM	?
O=C(c1nnsc1S(=O)(=O)c1ccc(Cl)cc1)N1CCOCC1	?	0	50µM	2.8µM	0	?
SMILES	miR-21 reporter	KDM4E inh	G9a inh	ALDH1A1 inh	Sfp inh	Lamin A splicing
O=C(c1nnsc1S(=O)c1ccc(Cl)cc1)N1CCOCC1 (stereo not given)	?	0	32µM	7.1µM	56µM	0[9.22 µM]
Cc1nnsc1S(=O)c1ccc(Cl)cc1 (stereo not given)	0	-	0	-	0	-
CNC(=O)c1nnsc1S(=O)(=O)c1ccc(Cl)cc1	?	0	14µM	2µM	7.1µM	?
C=C(C)Cc1c(C)c(C#N)c2[nH]c3ccccc3n2c1=O	0	-	0	-	0	-
CCc1cc(=O)n2c([nH]c3ccccc32)c1C#N	0	?	0[12.7 µM]	?	0	0
Cc1c(CCC(=O)O)c(=O)n2c([nH]c3ccccc32)c1C#N	0	?	2.2µM	?	0	0
CCc1c(C)c(C#N)c2[nH]c3ccccc3n2c1=S	0	?	-	-	79µM	-
CCc1cc(=S)n2c([nH]c3ccccc32)c1C#N	0	?	4µM	?	45µM	-
CCOC(=O)c1cc(C)n(CC2CCC(C(=O)Nc3ccc(C(C)=O)cc3)CC2)c1C (stereo not given)	0	-	0	-	-	-
CC(=O)CCC(=O)N1CCC(n2nccc2NC(=O)c2ccccc2C)CC1	0	-	-	-	0	-
